Data from patent EP4837910A1, “ISOXAZOLINE COMPOUND AND PREPARATION METHOD THEREFOR, HERBICIDAL COMPOSITION, AND USE” (dated 2026).

How the values were obtained:
[1] = tested on: Zea mays; test: Pre-emergence test, crop damage (greenhouse, sprayed immediately after sowing); conditions: Dosage 240 g a.i./ha, after 4 weeks in greenhouse, fresh weight control rate
Text: Monocotyledonous and dicotyledonous weed seeds as well as major crop seeds were placed in plastic pots filled with soil and then covered with 0.5-2 cm of soil. The test compounds of the present invention were individually dissolved with acetone, then added with Tween® 80, diluted with certain amount of water to obtain solutions of certain concentrations, and sprayed immediately after sowing. After drug application, the experimental results on weeds were observed after 4 weeks of cultivation in a greenhouse. Table 3 Results of pre-emergence test on weeds

[2] = tested on: Monocotyledonous and dicotyledonous weed; test: Pre-emergence test on weeds (greenhouse, sprayed immediately after sowing); conditions: Dosage 240 g a.i./ha, after 4 weeks in greenhouse, fresh weight control rate

Structure (SMILES) | activity level of plant damage (growth control rate), Zea mays [1] | activity level of plant damage (growth control rate), Digitaria sanguinalis [2] | activity level of plant damage (growth control rate), Lolium multiflorum [2] | activity level of plant damage (growth control rate), Setaria viridis [2] | activity level of plant damage (growth control rate), Descurainia sophia [2]
CCN(OC)C(=O)[C@H](C)NC(=O)[C@@]1(CC)CC(c2cc(F)cc(F)c2)=NO1 | 2 (Level 2: growth control rate greater than or equal to 10% and less than 20%) | 8 (Level 8: growth control rate greater than or equal to 90% and less than 100%) | 7 (Level 7: growth control rate greater than or equal to 80% and less than 90%) | 9 | –
C=C[C@]1(C(=O)N[C@@H](C)C(=O)NOC)CC(c2cc(F)cc(C(F)(F)F)c2)=NO1 | 2 (Level 2: growth control rate greater than or equal to 10% and less than 20%) | – | 9 | – | 9
C=C[C@]1(C(=O)N[C@@H](Cc2ccc(O)cc2)C(=O)N(C)OC)CC(c2cc(F)cc(F)c2)=NO1 | 0 | – | 7 (Level 7: growth control rate greater than or equal to 80% and less than 90%) | – | –
C=C[C@]1(C(=O)N[C@@H](C)C(=O)NOCCCC(=O)OC)CC(c2cc(F)cc(F)c2)=NO1 | 0 | – | – | – | 9
C=C[C@]1(C(=O)N[C@@H](C)C(=O)NOCC(=O)OC)CC(c2cc(F)cc(F)c2)=NO1 | 0 | – | 9 | – | 9
C=C[C@]1(C(=O)N[C@@H](C)C(=O)N(C)OC(C)C)CC(c2cc(F)cc(F)c2)=NO1 | 2 (Level 2: growth control rate greater than or equal to 10% and less than 20%) | 5 (Level 5: growth control rate greater than or equal to 50% and less than 70%) | 7 (Level 7: growth control rate greater than or equal to 80% and less than 90%) | 5 (Level 5: growth control rate greater than or equal to 50% and less than 70%) | –
C=C[C@]1(C(=O)N[C@@H](C)C(=O)N(C)OC)CC(c2cc(Cl)cc(OC(F)(F)F)c2)=NO1 | 1 (Level 1: growth control rate less than 10%) | 9 | 9 | 9 | 6 (Level 6: growth control rate greater than or equal to 70% and less than 80%)
C=C[C@]1(C(=O)NC(C(=O)N(C)OC)C2CC2)CC(c2cc(F)cc(F)c2)=NO1 (some centres unmarked) | 0 | 6 (Level 6: growth control rate greater than or equal to 70% and less than 80%) | 8 (Level 8: growth control rate greater than or equal to 90% and less than 100%) | 6 (Level 6: growth control rate greater than or equal to 70% and less than 80%) | –
C=C[C@]1(C(=O)N[C@@H](C)C(=O)N(C)OC)CC(c2cc(F)cc(OC(F)(F)F)c2)=NO1 | 0 | 8 (Level 8: growth control rate greater than or equal to 90% and less than 100%) | 9 | 9 | 9
CON(C)C(=O)[C@@H](C)NC(=O)C1(C(F)(F)F)CC(c2cc(F)cc(F)c2)=NO1 (some centres unmarked) | 2 (Level 2: growth control rate greater than or equal to 10% and less than 20%) | 9 | 6 (Level 6: growth control rate greater than or equal to 70% and less than 80%) | 9 | –
CONC(=O)[C@H](C)NC(=O)[C@@]1(CF)CC(c2cc(F)cc(F)c2)=NO1 | 2 (Level 2: growth control rate greater than or equal to 10% and less than 20%) | – | 6 (Level 6: growth control rate greater than or equal to 70% and less than 80%) | – | 6 (Level 6: growth control rate greater than or equal to 70% and less than 80%)
CON(C)C(=O)[C@H](C)NC(=O)[C@]1(CF)CC(c2cc(F)cc(F)c2)=NO1 | 2 (Level 2: growth control rate greater than or equal to 10% and less than 20%) | 5 (Level 5: growth control rate greater than or equal to 50% and less than 70%) | 9 | – | 9
C=C[C@]1(C(=O)N[C@@H](C)C(=O)N(C)OCCBr)CC(c2cc(F)cc(F)c2)=NO1 | 0 | – | 9 | – | 7 (Level 7: growth control rate greater than or equal to 80% and less than 90%)
C=C(C)[C@]1(C(=O)N[C@@H](C)C(=O)N(C)OC)CC(c2cc(Cl)cc(Cl)c2)=NO1 | 1 (Level 1: growth control rate less than 10%) | 9 | 9 | 9 | –
C=C[C@@]1(C(=O)N[C@H](C)C(=O)NOC)CC(c2cc(F)cc(C(F)(F)F)c2)=NO1 | 0 | – | 5 (Level 5: growth control rate greater than or equal to 50% and less than 70%) | – | 9
CC[C@@]1(C(=O)N[C@@H](C)C(=O)NOC)CC(c2cc(Cl)cc(Cl)c2)=NO1 | 2 (Level 2: growth control rate greater than or equal to 10% and less than 20%) | – | 9 | – | –
C=CC1(C(=O)O[C@@H](C)C(=O)N(C)OC)CC(c2cc(F)cc(F)c2)=NO1 (some centres unmarked) | 0 | – | 9 | – | 8 (Level 8: growth control rate greater than or equal to 90% and less than 100%)
C=C[C@]1(C(=O)N[C@@H](C)C(=O)N(C)OC)CC(c2cc(F)c(F)c(F)c2)=NO1 | 2 (Level 2: growth control rate greater than or equal to 10% and less than 20%) | – | 9 | – | –
CON(C)C(=O)[C@H](C)NC(=O)C1(C)CC(c2cc(F)cc(F)c2)=NO1 (some centres unmarked) | 2 (Level 2: growth control rate greater than or equal to 10% and less than 20%) | 8 (Level 8: growth control rate greater than or equal to 90% and less than 100%) | 9 | – | –
C=C[C@]1(C(=O)N[C@@H](CCCCN)C(=O)N(C)OC)CC(c2cc(F)cc(F)c2)=NO1 | 1 (Level 1: growth control rate less than 10%) | 5 (Level 5: growth control rate greater than or equal to 50% and less than 70%) | – | – | –
C=C[C@@]1(C(=O)N[C@@H](CCCCN)C(=O)N(C)OC)CC(c2cc(F)cc(F)c2)=NO1 | 1 (Level 1: growth control rate less than 10%) | 5 (Level 5: growth control rate greater than or equal to 50% and less than 70%) | – | – | –
CON(C)C(=O)[C@H](C)NC(=O)[C@@]1(C2CC2)CC(c2cc(F)cc(F)c2)=NO1 | 0 | 8 (Level 8: growth control rate greater than or equal to 90% and less than 100%) | 9 | 9 | –
C=CC1(C(=O)N[C@@H](C)C(=O)NOCC)CC(c2cc(F)cc(F)c2)=NO1 (some centres unmarked) | 0 | – | 5 (Level 5: growth control rate greater than or equal to 50% and less than 70%) | – | 8 (Level 8: growth control rate greater than or equal to 90% and less than 100%)
C=CC1(C(=O)N[C@H](C)C(=O)NOC)CC(c2cc(F)cc(F)c2)=NO1 (some centres unmarked) | 0 | – | 8 (Level 8: growth control rate greater than or equal to 90% and less than 100%) | – | –
C=C[C@]1(C(=O)N[C@@H](C)C(=O)N(C)OCc2ccccc2)CC(c2cc(F)cc(F)c2)=NO1 | 1 (Level 1: growth control rate less than 10%) | – | 5 (Level 5: growth control rate greater than or equal to 50% and less than 70%) | – | 7 (Level 7: growth control rate greater than or equal to 80% and less than 90%)
C=C[C@]1(C(=O)N[C@@H](C)C(=O)NOCC)CC(c2cc(F)cc(OC(F)(F)F)c2)=NO1 | 1 (Level 1: growth control rate less than 10%) | – | 9 | – | –
CON(C)C(=O)[C@H](C)NC(=O)C1(OC)CC(c2cc(F)cc(F)c2)=NO1 (some centres unmarked) | 0 | 8 (Level 8: growth control rate greater than or equal to 90% and less than 100%) | – | – | –
